The values below are quoted from earlier work in patent EP4687750B1, “ORAL CARE KIT COMPRISING A LIGHT EMITTING DEVICE AND AN ORAL COMPOSITION” (dated 2026).

For the series the following is noted: heating curcumin in water to boiling for 10 minutes; cited from earlier work.

For `COc1cc(/C=C/C(=O)CC(=O)/C=C/c2ccc(O)c(OC)c2)ccc1O`, the increase of solubility is 12 -fold.
